{"source": "paper PMC3646298", "about": "(Pharmaceutical research, 2012)", "tested_on": "PC-3 tumors", "experiment": "PC-3 tumor xenograft study", "type": "in vivo, nude mice", "settings": "PC-3 xenograft, IV 10 mg/kg, day 1 and 9, end point day 19"}
{"molecule": "CC(=O)O[C@@]12CO[C@@H]1C[C@H](O)[C@@]1(C)C(=O)[C@H](O)C3=C(C)[C@@H](OC(=O)[C@H](O)[C@@H](NC(=O)OC(C)(C)C)c4ccccc4)C[C@@](O)([C@@H](OC(=O)c4ccccc4)[C@H]21)C3(C)C", "note": "[Docetaxel]", "values": [{"measurement": "TGI", "value": 84, "unit": "%"}]}
